Measured values: patent US8343539B2, “Compounds that bind α5β1 integrin and methods of use” (Regents of the University of Minnesota, priority 2006, dated 2013)

Sequences of proteins named here, by UniProt entry; tags and fusion partners are left off. Residues count along the entry.
UniProt P05106, 27-788: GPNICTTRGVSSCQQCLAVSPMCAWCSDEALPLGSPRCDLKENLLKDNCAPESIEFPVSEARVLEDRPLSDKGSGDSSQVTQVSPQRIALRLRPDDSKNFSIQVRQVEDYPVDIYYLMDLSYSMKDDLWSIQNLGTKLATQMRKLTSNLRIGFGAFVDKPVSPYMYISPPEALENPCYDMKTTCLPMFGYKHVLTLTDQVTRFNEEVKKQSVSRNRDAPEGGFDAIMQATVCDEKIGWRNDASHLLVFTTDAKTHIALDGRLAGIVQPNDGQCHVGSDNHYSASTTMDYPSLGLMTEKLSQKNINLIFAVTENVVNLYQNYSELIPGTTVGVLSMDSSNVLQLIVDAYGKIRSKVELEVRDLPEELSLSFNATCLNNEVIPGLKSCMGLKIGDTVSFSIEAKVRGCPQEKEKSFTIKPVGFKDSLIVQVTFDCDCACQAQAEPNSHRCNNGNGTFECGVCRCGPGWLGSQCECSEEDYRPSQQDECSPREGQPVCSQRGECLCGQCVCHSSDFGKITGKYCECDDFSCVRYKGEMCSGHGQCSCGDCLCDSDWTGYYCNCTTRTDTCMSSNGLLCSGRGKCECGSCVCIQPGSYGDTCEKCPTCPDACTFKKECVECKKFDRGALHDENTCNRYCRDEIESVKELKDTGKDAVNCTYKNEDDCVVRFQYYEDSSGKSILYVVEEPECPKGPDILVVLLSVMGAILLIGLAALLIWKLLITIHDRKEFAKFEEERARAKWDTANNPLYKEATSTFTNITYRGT
UniProt P06756, 891-1048 partner limits assumed: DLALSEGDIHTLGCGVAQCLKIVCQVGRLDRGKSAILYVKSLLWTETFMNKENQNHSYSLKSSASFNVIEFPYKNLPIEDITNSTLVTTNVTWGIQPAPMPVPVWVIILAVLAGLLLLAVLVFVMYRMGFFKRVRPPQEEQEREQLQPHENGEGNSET
UniProt P06756, 31-889 limits assumed: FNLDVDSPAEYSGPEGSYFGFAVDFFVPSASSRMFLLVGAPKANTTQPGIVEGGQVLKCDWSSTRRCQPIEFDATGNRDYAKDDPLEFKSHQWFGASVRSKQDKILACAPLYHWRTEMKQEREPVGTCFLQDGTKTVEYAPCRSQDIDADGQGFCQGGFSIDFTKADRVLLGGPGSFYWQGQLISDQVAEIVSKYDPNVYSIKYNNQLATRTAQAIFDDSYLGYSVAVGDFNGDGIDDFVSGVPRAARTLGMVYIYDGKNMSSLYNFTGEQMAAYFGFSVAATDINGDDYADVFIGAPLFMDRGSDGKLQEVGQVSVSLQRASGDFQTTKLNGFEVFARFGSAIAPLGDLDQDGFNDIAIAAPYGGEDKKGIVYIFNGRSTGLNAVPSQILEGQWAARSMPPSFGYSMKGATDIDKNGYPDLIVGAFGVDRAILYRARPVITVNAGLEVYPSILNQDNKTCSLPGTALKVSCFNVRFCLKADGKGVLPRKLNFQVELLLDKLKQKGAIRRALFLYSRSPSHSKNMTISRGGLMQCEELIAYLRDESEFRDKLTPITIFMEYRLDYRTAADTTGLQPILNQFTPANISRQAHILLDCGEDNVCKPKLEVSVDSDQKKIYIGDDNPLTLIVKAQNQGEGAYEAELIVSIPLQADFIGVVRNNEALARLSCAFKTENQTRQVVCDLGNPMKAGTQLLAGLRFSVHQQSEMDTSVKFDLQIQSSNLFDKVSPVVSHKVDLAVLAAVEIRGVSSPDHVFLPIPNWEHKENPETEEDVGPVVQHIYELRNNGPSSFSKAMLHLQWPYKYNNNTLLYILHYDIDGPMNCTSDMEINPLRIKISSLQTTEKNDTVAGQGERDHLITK
UniProt P08648, 895-1049 partner limits assumed: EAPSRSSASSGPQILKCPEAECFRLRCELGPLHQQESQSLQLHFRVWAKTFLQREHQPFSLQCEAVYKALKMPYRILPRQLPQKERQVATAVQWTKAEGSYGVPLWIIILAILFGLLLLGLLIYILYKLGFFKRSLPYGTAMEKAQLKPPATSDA
UniProt P08648, 42-894 limits assumed: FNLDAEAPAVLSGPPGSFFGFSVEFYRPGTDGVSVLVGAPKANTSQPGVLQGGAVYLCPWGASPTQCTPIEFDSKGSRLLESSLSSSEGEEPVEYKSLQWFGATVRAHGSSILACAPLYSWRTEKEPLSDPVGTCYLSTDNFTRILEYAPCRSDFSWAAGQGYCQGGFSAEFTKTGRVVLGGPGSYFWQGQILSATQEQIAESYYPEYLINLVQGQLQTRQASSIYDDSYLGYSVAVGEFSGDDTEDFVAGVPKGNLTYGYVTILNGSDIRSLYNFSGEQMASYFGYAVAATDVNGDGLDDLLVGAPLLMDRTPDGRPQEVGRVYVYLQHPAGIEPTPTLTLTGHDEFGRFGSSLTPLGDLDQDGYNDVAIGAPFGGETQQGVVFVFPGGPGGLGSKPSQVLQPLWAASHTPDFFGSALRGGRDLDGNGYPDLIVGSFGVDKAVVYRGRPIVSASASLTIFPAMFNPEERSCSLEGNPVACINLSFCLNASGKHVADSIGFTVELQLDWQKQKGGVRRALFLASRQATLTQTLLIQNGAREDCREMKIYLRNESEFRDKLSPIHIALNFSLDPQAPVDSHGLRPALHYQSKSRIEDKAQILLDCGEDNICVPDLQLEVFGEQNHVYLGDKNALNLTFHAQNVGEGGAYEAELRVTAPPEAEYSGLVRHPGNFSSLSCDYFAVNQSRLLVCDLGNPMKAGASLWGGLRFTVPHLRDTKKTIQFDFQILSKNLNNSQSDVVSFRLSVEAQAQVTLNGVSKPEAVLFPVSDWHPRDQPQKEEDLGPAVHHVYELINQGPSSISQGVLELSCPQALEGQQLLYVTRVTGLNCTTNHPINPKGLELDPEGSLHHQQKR

Key:
integrin αvβ3 = target: T1, integrin αvβ3 (Homo sapiens, UniProt P05106+P06756); assay: Adhesion blocking with anti-integrin αvβ3 antibody (LM609); format: cell-based; conditions: anti-αvβ3 antibody 20 μg/ml, 1 hour, HUVECs 249 cells/mm^2
T1 construct: HUVECs were prepared and counted as described in the cell adhesion protocol; endogenous in cells; host or cells: HUVEC (human umbilical vein endothelial cells)
Protocol: (§1) Adhesion blocking experiments: Blocking experiments were done using mouse anti-human integrin […] (P1D6), β1 (P5D2), α5β1 (JBS5), and αvβ3 (LM609) monoclonal antibodies (Chemicon Int.). All surfaces were transferred to 24- or 12-well plates and pre-incubated in 0.1% BSA media as described above. HUVECs were prepared and counted as described in the cell adhesion protocol. Cells were blocked by mixing the cell suspension with the appropriate antibody in 0.1% BSA media, and incubating for 30 minutes at 37° C., 5% CO2 with constant agitation. Blocked cells were then released onto LB and FN surfaces and allowed to adhere for 1 hour at 37° C., 5% CO2. For all blocking experiments, cells were seeded at 249 cells/mm^2 (lower seeding density was used here to reduce the amount of antibodies needed to block cell adhesion) and a final antibody concentration in each well was 20 μg/ml. Following incubation, surfaces were washed, and adhered cells were quantified as described in the cell adhesion protocol.

integrin β1 = target: T2, integrin β1 (Homo sapiens, UniProt P05556+P08648); assay: Adhesion blocking with anti-integrin β1 antibody (P5D2); format: cell-based; conditions: anti-β1 antibody 20 μg/ml, 1 hour, HUVECs 249 cells/mm^2
T2 construct: HUVECs were prepared and counted as described in the cell adhesion protocol; endogenous in cells; host or cells: HUVEC (human umbilical vein endothelial cells)
Protocol: as §1

reduction in cell adhesion compared to adhesion of non-blocked cells (integrin αvβ3): 72.39±2.87%
reduction in cell adhesion compared to adhesion of non-blocked cells (integrin β1): 73.84±8.69%
Substance: FN: Human fibronectin-coated round coverslips (BD Biosciences), positive control
